Bioassay records (PubChem)
PI5P4K alpha inh: qHTS for Inhibitors of phosphatidylinositol 5-phosphate 4-kinase (PI5P4K). actives 1.2% (n = 330,000). max response, %. AID 652105, 2013. Phosphatidylinositol 5-phosphate 4-kinase type-2 alpha (Homo sapiens), P48426. PI5P4Kalpha enzyme, ADP-Glo luminescence, 60 min; hits give low values; active = max response of -50% or lower; inconclusive = between -30% and -50%; inactive = -30% or higher; also: value at the top dose of about 77 µM; % is scaled to controls: 0 for no effect and ±100 for the full control effect
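ADP-Glo luminescence end-point after a 60 min room-temperature kinase reaction. PI5P4Kalpha and substrate in HEPES pH 7.4 buffer with EGTA, 0.1% CHAPS and 5% DMSO; ATP at 5 microM final.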
VDR inhibitor: Inhibitors of the vitamin D receptor (VDR): qHTS; Vitamin D3 receptor (Homo sapiens), P11473; VDR-SRC2-3 peptide fluorescence polarization, 2 h; Potency, µM, for the others: max response, negative = inhibition, most hits filed as inhibitors; actives 0.93% (n = 400,000); AID 504847, 2011; also: potency is read from the fitted curve at half-maximal effect; % is scaled to controls: 0 for no effect and ±100 for the full control effect
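FP read-out; VDR + SRC2-3 coactivator peptide; 23 nl compound by pintool; 2 h RT incubation; reagents held at 4 deg C, protected from light.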
GCN5L2 inh: qHTS Assay for Inhibitors of GCN5L2; Histone acetyltransferase KAT2A (Homo sapiens), Q92830; GCN5L2 HAT assay, ThioGlo1 CoA-SH fluorescence; Potency, µM (titrated, usually from 58.9 µM), inactives show at the top dose activity change, negative = inhibition, hits mostly inhibitors; actives 0.21% (n = 390,000); also: potency is read from the fitted curve at half-maximal effect; % is scaled to controls: 0 for no effect and ±100 for the full control effect
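ThioGlo1-coupled HAT assay: 20nM GCN5L2, 70uM acetyl-CoA, 75uM H3(1-25) peptide, pH 7.5. Fluorescence read at 340/540nm at start and after 20 min at room temperature.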
Rango complex inh: qHTS Assay for Inhibitors of Rango (Ran-regulated importin-beta cargo) - Importin beta complex formation; Rango CFP/YFP FRET sensor + importin beta, 45 min; actives 0.031% (n = 340,000); Potency, µM (top dose mostly 92.2 µM), without a hit: top-dose inhibition of complex formation; calls by dose curve;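 also: potency is read from the fitted curve at half-maximal effect; 0% = DMSO wells and 100% = buffer wells lacking importin beta; nearly all actives have a fitted effect of over 15% in size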
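FRET biosensor (snurportin 1 IBB flanked by EYFP and cerulean), 50 nM, with compound 5 min, then 0.125 microM importin beta in PBS, 1 mM DTT, 0.02% Tween-20, 0.1% BSA. CFP/YFP ratio read after 45 min at room temperature; pre-read flags interference.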
PLK1 PBD inh: qHTS for Inhibitors of PLK1-PDB (polo-like kinase 1 - polo-box domain): Primary Screen; Serine/threonine-protein kinase PLK1 (Homo sapiens), P53350; Plk1 PBD binding of FITC phosphopeptide, fluorescence polarization; Potency, µM, for the others: max response, negative = inhibition, most hits filed as inhibitors; actives 2.8% (n = 360,000); also: potency is read from the fitted curve at half-maximal effect; series mostly up to about 57 µM; % is scaled to controls: 0 for no effect and ±100 for the full control effect; nearly all actives have a fitted effect of over 65% in size
Rango dissoc inh: qHTS Assay for Inhibitors of RanGTP induced Rango (Ran-regulated importin-beta cargo) - Importin beta complex dissociation; Biochemical FRET Rango-importin beta, RanGTP-induced dissociation; Potency, µM (doses to about 46.1 µM), for inactives: top-dose activity change, negative = inhibition; actives 0.071% (n = 340,000); AID 540253, 2011; calls by dose curve; also: potency is read from the fitted curve at half-maximal effect; % of control where 0% means no effect; nearly all actives have a fitted effect of over 45% in size
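Recombinant Rango FRET biosensor (EYFP–snurportin 1 IBB–cerulean CFP10) at 0.1 uM premixed with 0.25 uM importin beta in PBS, 1 mM DTT, 0.02% Tween-20, 0.1% BSA. Compound added 5 min; RanGTP-RCC1 (0.6 uM Ran, 2 mM GTP, 0.2 uM RCC1) then triggers release, read at 45 min.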
* hit, by the source's call; ? = inconclusive; / = no result given. Shown are actives, neighbours in structure and some others; about 3.6% of the full set was active somewhere. Unless noted, calls follow the shape of the dose curve; as a rule, active = well fitted curve in the direction sought with a large enough effect; inconclusive = small, poorly fitted or top-dose-only effect, or another doubt; inactive = no such curve, though single readings can be large; an effect the other way counts as inactive or inconclusive.

Protein sequences, listed by entry. Tags and fused reporters are not part of them.
Histone acetyltransferase KAT2A (Homo sapiens), Q92830, UniProt Q92830, whole entry, looked up: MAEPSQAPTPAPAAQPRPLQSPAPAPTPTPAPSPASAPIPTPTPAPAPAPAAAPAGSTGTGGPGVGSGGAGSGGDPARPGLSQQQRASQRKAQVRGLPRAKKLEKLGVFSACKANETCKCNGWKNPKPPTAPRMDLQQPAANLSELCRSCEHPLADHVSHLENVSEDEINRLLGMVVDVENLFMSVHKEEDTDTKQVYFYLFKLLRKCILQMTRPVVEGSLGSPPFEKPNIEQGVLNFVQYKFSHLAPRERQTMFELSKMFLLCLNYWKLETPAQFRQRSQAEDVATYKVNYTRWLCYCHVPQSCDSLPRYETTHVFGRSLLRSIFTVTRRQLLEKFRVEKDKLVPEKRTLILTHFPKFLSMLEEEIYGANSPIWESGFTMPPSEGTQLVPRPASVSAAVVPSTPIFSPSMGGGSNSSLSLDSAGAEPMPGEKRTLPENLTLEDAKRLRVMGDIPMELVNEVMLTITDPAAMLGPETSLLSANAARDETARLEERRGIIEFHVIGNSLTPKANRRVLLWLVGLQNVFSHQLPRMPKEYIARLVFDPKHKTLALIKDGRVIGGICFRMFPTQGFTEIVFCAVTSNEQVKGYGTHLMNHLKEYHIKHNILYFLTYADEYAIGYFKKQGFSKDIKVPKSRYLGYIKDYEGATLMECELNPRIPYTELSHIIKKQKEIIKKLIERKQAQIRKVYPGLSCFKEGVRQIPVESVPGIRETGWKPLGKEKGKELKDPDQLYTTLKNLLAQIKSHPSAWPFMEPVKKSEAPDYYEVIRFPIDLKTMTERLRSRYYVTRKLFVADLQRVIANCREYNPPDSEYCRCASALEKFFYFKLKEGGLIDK
Serine/threonine-protein kinase PLK1 (Homo sapiens), P53350, UniProt P53350, whole entry, looked up: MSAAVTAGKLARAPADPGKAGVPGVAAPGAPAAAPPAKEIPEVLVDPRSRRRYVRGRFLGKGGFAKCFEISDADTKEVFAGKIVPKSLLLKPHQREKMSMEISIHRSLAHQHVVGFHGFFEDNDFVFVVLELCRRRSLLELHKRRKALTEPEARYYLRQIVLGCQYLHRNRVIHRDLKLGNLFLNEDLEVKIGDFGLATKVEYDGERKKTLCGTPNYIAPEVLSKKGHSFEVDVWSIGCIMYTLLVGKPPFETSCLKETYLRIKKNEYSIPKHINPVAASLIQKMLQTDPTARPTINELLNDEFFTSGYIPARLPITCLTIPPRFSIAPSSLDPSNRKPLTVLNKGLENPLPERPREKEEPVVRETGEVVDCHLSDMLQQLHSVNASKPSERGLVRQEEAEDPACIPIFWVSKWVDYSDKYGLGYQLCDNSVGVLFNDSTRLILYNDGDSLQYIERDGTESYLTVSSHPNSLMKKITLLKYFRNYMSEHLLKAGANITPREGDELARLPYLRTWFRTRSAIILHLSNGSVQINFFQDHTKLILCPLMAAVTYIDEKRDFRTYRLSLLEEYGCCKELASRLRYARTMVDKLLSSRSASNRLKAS

SMILES	PI5P4K alpha inh	VDR inhibitor	GCN5L2 inh	Rango complex inh	PLK1 PBD inh	Rango dissoc inh
CN1CC[C@H](c2c(O)cc(O)c3c(=O)cc(-c4ccccc4Cl)oc23)[C@@H](O)C1	/	-5%	/	/	/	/
COC(=O)C(Cc1ccccc1)NS(=O)(=O)c1cc(Br)ccc1Br (stereo unspecified)	/	-2%	/	/	/	/
CCOC(=O)c1ccc(NC(=O)c2ccccc2[N+](=O)[O-])cc1	-8	?	-9%	3%	30µM*	2%
O=C(Nc1cccc(NC(=O)c2cc([N+](=O)[O-])ccc2Cl)n1)c1cc([N+](=O)[O-])ccc1Cl	-8	-9%	/	21µM*	-13%	1%
O=C(Oc1ccccc1C(=O)Nc1ccccc1)c1ccc(Br)c([N+](=O)[O-])c1	-3	50µM*	-4%	6%	?	11%
O=C(O)c1ccccc1NSc1ccccc1[N+](=O)[O-]	-27	-20%	0%	2%	11µM*	-12%
Cc1ccc2nc(COc3ccccc3NC(=O)c3ccccc3F)cc(=O)n2c1	/	4%	-2%	/	/	/
CCC1CCCCN1Cc1cn2c(-c3ccc(Br)cc3)nnc2s1 (stereo unspecified)	/	-8%	-7%	/	/	/
Cc1nn(S(=O)(=O)c2ccc(C(C)C)cc2)c(C)c1S(=O)(=O)N1CCCCCC1	/	14%	2%	/	/	/
O=C(Nc1cccc(NC(=O)c2ccccc2[N+](=O)[O-])n1)c1ccccc1[N+](=O)[O-]	-55*	-10%	-1%	?	2.7µM*	?
Cc1cccc(NC(=O)c2ccccc2[N+](=O)[O-])n1	-3	8%	16%	2%	-5%	5%
COc1ccc(-c2csc(Nc3ccc(S(=O)(=O)Nc4cc(OC)nc(OC)n4)cc3)n2)cc1	-18	-1%	-17%	4%	24µM*	44%
COc1cc(NS(=O)(=O)c2ccc(N/C=C\C(=O)c3ccc(C)cc3)cc2)nc(OC)n1	?	-20%	/	?	3.4µM*	?
CCOC(=O)c1ccc(CN(Cc2ccc(F)cc2)S(=O)(=O)c2cc(C(=O)Nc3ccccc3CC)ccc2F)cc1	/	4%	6%	/	/	/
Cc1c(C(=O)N2CCCCCC2)c(S(=O)(=O)Nc2ccc(OC(F)(F)F)cc2)c(C)n1C	/	0%	-2%	/	/	/
S=c1nccc(-c2cccs2)[nH]1	-1	?	2%	-1%	12µM*	-15%
CCOC(=O)c1ccc(CN(Cc2ccccc2C)S(=O)(=O)c2ccc(F)c(C)c2)cc1	/	-7%	-1%	/	/	/
N#Cc1cc(C#N)c(SCC(=O)N2CC(=O)Nc3ccccc32)nc1N	-53*	6%	-5%	?	-4%	?
CCc1ccc2nc(SCC(=O)N3CC(=O)Nc4ccccc43)c(C#N)cc2c1	-14	?	-8%	4%	21µM*	0%
CCc1cc2c(SCC(=O)N3CC(=O)Nc4ccccc43)ncnc2s1	-28	?	0%	0%	27µM*	-12%
Cc1nc(SCC(=O)N2CC(=O)Nc3ccccc32)nc(C)c1C	1	3%	-6%	0%	-9%	-4%
Nc1nnc(CSCc2ccc(F)cc2)s1	/	-18%	-5%	-2%	19µM*	6%
Nc1nnc(Cc2ccc(Cl)c(Cl)c2)s1	-3	-6%	-8%	?	-21%	-16%
CC(C)(C)NC(=O)Cn1c(SCC(N)=O)nc2ccccc21	-25	?	?	-1%	15µM*	2%
CC(=O)Nc1ccc(C(=O)OCC(=O)N(c2ccccc2)C2CCCCC2)cc1	-1	-2%	1%	4%	-2%	-11%

Quoted at random: 4 entries already listed
SMILES	PI5P4K alpha inh	VDR inhibitor	GCN5L2 inh	Rango complex inh	PLK1 PBD inh	Rango dissoc inh
Cc1nc(SCC(=O)N2CC(=O)Nc3ccccc32)nc(C)c1C	1	3%	-6%	0%	-9%	-4%
Nc1nnc(Cc2ccc(Cl)c(Cl)c2)s1	-3	-6%	-8%	?	-21%	-16%
Nc1nnc(CSCc2ccc(F)cc2)s1	/	-18%	-5%	-2%	19µM*	6%
CC(C)(C)NC(=O)Cn1c(SCC(N)=O)nc2ccccc21	-25	?	?	-1%	15µM*	2%
